By IC50 is commonly meant the point on the concentration scale where inhibition reaches its midpoint.

Amino acid sequences for entries named in this document (tags omitted). Residues count along the entry.
UniProt P39900, 100-263 limits assumed: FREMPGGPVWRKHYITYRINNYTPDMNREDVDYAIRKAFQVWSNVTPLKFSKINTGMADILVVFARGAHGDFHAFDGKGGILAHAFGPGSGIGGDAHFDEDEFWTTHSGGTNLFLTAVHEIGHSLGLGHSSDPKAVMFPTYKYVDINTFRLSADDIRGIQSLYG
UniProt P22894, 99-262 limits assumed: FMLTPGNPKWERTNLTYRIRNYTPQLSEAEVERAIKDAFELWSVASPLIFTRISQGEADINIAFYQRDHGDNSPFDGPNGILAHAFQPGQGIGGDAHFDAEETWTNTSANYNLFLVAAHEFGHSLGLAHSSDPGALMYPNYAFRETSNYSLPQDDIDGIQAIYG
UniProt P14780, 107-707 limits assumed: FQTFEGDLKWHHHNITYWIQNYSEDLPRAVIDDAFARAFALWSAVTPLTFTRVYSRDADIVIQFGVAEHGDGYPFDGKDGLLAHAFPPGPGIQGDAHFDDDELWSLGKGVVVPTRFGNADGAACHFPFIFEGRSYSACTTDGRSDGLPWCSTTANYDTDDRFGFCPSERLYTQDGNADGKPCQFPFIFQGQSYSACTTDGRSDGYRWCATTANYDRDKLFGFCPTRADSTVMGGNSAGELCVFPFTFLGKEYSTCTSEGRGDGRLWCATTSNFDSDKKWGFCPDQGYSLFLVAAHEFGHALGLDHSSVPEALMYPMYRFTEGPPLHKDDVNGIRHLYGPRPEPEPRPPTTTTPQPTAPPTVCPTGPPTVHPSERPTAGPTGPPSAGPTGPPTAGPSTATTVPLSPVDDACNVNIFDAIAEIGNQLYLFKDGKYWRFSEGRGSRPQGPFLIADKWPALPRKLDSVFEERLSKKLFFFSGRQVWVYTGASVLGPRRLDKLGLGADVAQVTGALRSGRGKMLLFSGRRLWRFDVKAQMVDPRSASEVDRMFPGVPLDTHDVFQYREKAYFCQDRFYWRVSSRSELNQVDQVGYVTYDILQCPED
UniProt P08253, 110-660 limits assumed: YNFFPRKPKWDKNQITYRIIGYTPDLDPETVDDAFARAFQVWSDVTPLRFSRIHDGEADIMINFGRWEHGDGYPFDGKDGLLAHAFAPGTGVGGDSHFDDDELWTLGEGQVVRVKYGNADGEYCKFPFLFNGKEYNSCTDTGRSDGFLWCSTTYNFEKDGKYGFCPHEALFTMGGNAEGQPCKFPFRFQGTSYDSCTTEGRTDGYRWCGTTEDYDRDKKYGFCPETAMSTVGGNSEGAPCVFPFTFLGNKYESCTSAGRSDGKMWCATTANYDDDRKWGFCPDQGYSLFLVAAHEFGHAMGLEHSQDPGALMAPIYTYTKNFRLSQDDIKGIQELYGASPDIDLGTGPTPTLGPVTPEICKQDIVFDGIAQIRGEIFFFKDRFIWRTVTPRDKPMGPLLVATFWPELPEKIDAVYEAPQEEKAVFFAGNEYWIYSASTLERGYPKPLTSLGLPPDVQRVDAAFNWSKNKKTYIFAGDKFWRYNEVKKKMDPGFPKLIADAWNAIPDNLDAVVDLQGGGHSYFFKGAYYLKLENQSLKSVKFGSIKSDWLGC

A value given as a limit tells only on which side of the number the result lay.

Test [1] concerns the target MMP-12 (Homo sapiens, UniProt P39900). Description: Assay for inhibitory activities on MMPs (fluorogenic peptide substrate), MMP-12. The note with it: read-out: MMP inhibitory activity IC50 MMP-12. The protocol: In regard to MMP-12, catalytic domain (^100Phe˜^263Gly) was amplified with RT-PCR from Human Placenta Total RNA. This was cloned in Escherichia coli expression vector pTrc99AHE inserted with His-tag sequence and enterokinase digestion-site, induced and expressed by IPTG (Isopropyl-β-D-thiogalactopyranoside) and expressed in an insoluble fraction. Isolation of MMP-12 from an insoluble fraction was carried out by dissolving in modifier (6 M urea) by a usual method and purification with metal chelate chromatography (Ni Chelateing Sepharose). And then removing modifier (6 M urea) with dialysis and refolding of the enzyme spontaneously gave activated MMP-12.
The enzymatic activity on MMPs was analyzed by the method described in “C. Graham Knight, Frances Willenbrock and Gillian Murphy: A novel coumarin-labelled peptide for sensitive continuous assays of the matrix metalloproteinases: FEBS LETT., 296, (1992), 263-266”. The substrate: MOCAc-Pro-Leu-Gly-Leu-A2Pr(DNP)-Ala-Arg-NH2 was purchased from Peptide Institute, Inc., Osaka, Japan. The measurement of the inhibitory activities (IC50) was carried out by the following four methods; […]
(§1) IC50 values were calculated by using the following formula and each fluorescence values of above four methods (A to D). […]
(§2) The value of inhibitory activity against MMP-2, MMP-8, MMP-9, MMP-12, and MMP-13 measured by above mentioned methods are shown in Table 25 and 26.

The target of test [2] is MMP-8 (Homo sapiens, UniProt P22894). Briefly: Assay for inhibitory activities on MMPs (fluorogenic peptide substrate), MMP-8. The note with it: read-out: MMP inhibitory activity IC50 MMP-8.
Description: In regard to MMP-8, catalytic domain (^99Phe˜^262Gly) was amplified with PCR using commercial available Human Bone Marrow cDNA. This was cloned in Escherichia coli expression vector pTrc99AHE inserted with His-tag sequence and enterokinase digestion-site, induced and expressed by IPTG (Isopropyl-β-D-thiogalactopyranoside) and expressed in a insoluble fraction (Than F. Ho, M. Walid Qoronfleh, Robert C. Wahl, Trica A. Pulvino, Karen J. Vavra, Joe Falvo, Tracey M. Banks, Patricia G. Brake and Richard B. Ciccarelli: Gene expression, purification and characterization of recombinant human neutrophil collagenase. Gene 146, (1994) 297-301. It was prepared by the method in a slight modification). Isolation of MMP-8 from an insoluble fraction was carried out by dissolving in modifier (6 M urea) by a usual method and purification with metal chelate chromatography. And then removing modifier (6 M urea) with dialysis and refolding of the enzyme spontaneously gave activated MMP-8.
(§3) The enzymatic activity on MMPs was analyzed by the method described in “C. […]
as §1, §2

Test [3] has as its target MMP-9 (Homo sapiens, UniProt P14780). Briefly: Assay for inhibitory activities on MMPs (fluorogenic peptide substrate), MMP-9. The note with it: read-out: MMP inhibitory activity IC50 MMP-9.
Description: MMP-9 was isolated and purified by the procedure of Y. Okada et al. (Yasunori Okada, Yukio Gonoji, Katsumi Naka, Katsuro Tomita, Isao Nakanishi, Kazushi Iwata, Kyoko Yamashita, and Taro Hayakawa: Matrix metalloproteinase 9 (92-kDa gelatinase/type IV collagenase) from HT1080 human fibrosarcoma cells. Purification and activation of the precursor and enzymic properties, J. Biol. Chem., 1992, 267, 21712-21719) in combination with other following methods: 1) Yasunori Okada, Tatsuhisa Morodomi, Jan J, Enghild, Ko Suzuki, Atsushi Yasui, Isao Nakanishi, Guy Salvesen and Hideaki Nagase: Matrix metalloproteinase 2 from human rheumatoid synovial fibroblasts. Purification and activation of the precursor and enzymic properties, Eur. J. Biochem., 1990, 194, 721-730; 2) Robin V Ward, Rosalind M Hembry, John J Reynolds and Gillian Murphy: The purification of tissue inhibitor of metalloproteinase-2 from its 72 kDa progelatinase complex. Biochem. J., 1991, 278, 179-187. […]
as §3, §1, §2

Test [4] deals with MMP-2 (Homo sapiens, UniProt P08253). Briefly: Assay for inhibitory activities on MMPs (fluorogenic peptide substrate), MMP-2. The note with it: read-out: MMP inhibitory activity IC50 MMP-2. The protocol: MMP-2 was purchased from Calbiochem-Novabiochem International, Inc.
The enzymatic activity on MMPs was analyzed by the method described in “C. Graham Knight, Frances Willenbrock and Gillian Murphy: A novel coumarin-labelled peptide for sensitive continuous assays of the matrix metalloproteinases: FEBS LETT., 296, (1992), 263-266”. The substrate: MOCAc-Pro-Leu-Gly-Leu-A2Pr(DNP)-Ala-Arg-NH2 was purchased from Peptide Institute, Inc., Osaka, Japan. The measurement of the inhibitory activities (IC50) was carried out by the following four methods;
(A) Reaction with substrate, enzyme (MMPs) and inhibitor
(B) Reaction with substrate and inhibitor, without enzyme
(C) Reaction with substrate and enzyme (MMPs), without inhibitor
(D) Reaction with substrate only
IC50 values were calculated by using the following formula and each fluorescence values of above four methods (A to D).
% inhibition={1-(A−B)/(C−D)}×100
IC50 means the concentration required to inhibit 50% of the enzyme activity.
as §2

Test [5] concerns the target MMP-13 (Homo sapiens, UniProt P45452). Description: Assay for inhibitory activities on MMPs (fluorogenic peptide substrate), MMP-13. The note with it: read-out: MMP inhibitory activity IC50 MMP-13.

For `C[C@H](NS(=O)(=O)c1ccc(-c2ccc(OCc3ccc4ccccc4c3)cc2)s1)C(=O)O`, the IC50 in test [1] was above 10 µM; in test [2], above 10 µM; in test [3], above 10 µM; in test [4], above 10 µM; in test [5] it was 0.119 µM.

The values above are taken from patent US20080119513A1, “Sulfonamide Derivative Selectively Inhibiting Mmp-13” (priority 2004, published 2008).
